The text below walks through data of paper PMC11329725 (Nature Communications, 2024).

The test concerns the target T1, His6-HDOB1 (human BRCA2 helical domain and OB fold 1, residues 2479-2807) (human, UniProt P51587 2479-2807).
T1 sequence: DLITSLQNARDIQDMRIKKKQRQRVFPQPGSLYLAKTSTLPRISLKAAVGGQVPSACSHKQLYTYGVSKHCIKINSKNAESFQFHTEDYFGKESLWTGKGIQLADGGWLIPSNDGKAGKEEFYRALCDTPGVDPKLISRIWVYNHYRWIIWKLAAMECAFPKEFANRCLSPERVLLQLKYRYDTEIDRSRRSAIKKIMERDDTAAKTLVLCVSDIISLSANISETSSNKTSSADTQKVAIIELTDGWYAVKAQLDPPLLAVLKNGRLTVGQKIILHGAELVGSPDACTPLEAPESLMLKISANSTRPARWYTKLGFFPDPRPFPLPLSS
Description: co-purification.

B1: GST-DSS1 (wild type), co-expressed with His6-HDOB1 in E. coli (natural protein)
chain: MSEKKQPVDLGLLEEDDEFEEFPAEDWAGLDEDEDAHVWEDNWDDDNVEDDFSNQLRAELEKHGYKMETS
B1: the binding result is listed as “binds”.
